This is a selection; strong and weak results do not stand in their true shares.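 In brief: 96-well plates, 48 h treatment, single concentration, percent growth endpoint.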 The source made the active and inactive calls. Rule for the calls: active = growth percent below 10; inactive = the rest.
How the values were obtained:
Test in all cases: NCI-60 one-dose screen, 48 h (100 = growth as untreated, 0 = no growth, -100 = all killed)
Settings in all cases: 10 µM
NCI-H226 lung = tested on: NCI-H226 lung
NCI-H322M lung = tested on: NCI-H322M lung
HOP-62 NSCLC = tested on: HOP-62 NSCLC
NCI-H460 lung = tested on: NCI-H460 lung
HOP-92 NSCLC = tested on: HOP-92 NSCLC
NCI-H522 lung = tested on: NCI-H522 lung
A549/ATCC NSCLC = tested on: A549/ATCC NSCLC
786-0 renal = tested on: 786-0 renal
COLO 205 colon = tested on: COLO 205 colon
DU-145 prostate = tested on: DU-145 prostate
K-562 leukemia = tested on: K-562 leukemia
MALME-3M melanoma = tested on: MALME-3M melanoma
MDA-MB-231 breast = tested on: MDA-MB-231 breast
RXF 393 renal = tested on: RXF 393 renal
SF-268 CNS = tested on: SF-268 CNS
SF-295 CNS = tested on: SF-295 CNS
SF-539 CNS = tested on: SF-539 CNS
UACC-257 melanoma = tested on: UACC-257 melanoma
M14 melanoma = tested on: M14 melanoma
HCT-15 colon = tested on: HCT-15 colon
HT29 colon = tested on: HT29 colon
SNB-75 CNS = tested on: SNB-75 CNS
SNB-19 CNS = tested on: SNB-19 CNS
U251 CNS = tested on: U251 CNS
PC-3 prostate = tested on: PC-3 prostate
UACC-62 melanoma = tested on: UACC-62 melanoma
SK-MEL-28 melanoma = tested on: SK-MEL-28 melanoma
SK-MEL-2 melanoma = tested on: SK-MEL-2 melanoma
EKVX NSCLC = tested on: EKVX NSCLC
SN12C renal = tested on: SN12C renal
UO-31 renal = tested on: UO-31 renal
TK-10 renal = tested on: TK-10 renal
ACHN renal = tested on: ACHN renal
CAKI-1 renal = tested on: CAKI-1 renal
A498 renal = tested on: A498 renal
HL-60(TB) leukemia = tested on: HL-60(TB) leukemia
CCRF-CEM leukemia = tested on: CCRF-CEM leukemia
MOLT-4 leukemia = tested on: MOLT-4 leukemia
SR leukemia = tested on: SR leukemia
RPMI-8226 leukemia = tested on: RPMI-8226 leukemia
OVCAR-8 ovarian = tested on: OVCAR-8 ovarian
OVCAR-5 ovarian = tested on: OVCAR-5 ovarian
OVCAR-4 ovarian = tested on: OVCAR-4 ovarian
IGROV1 ovarian = tested on: IGROV1 ovarian
OVCAR-3 ovarian = tested on: OVCAR-3 ovarian
HS 578T breast = tested on: HS 578T breast
T-47D breast = tested on: T-47D breast
BT-549 breast = tested on: BT-549 breast
MDA-MB-435 melanoma = tested on: MDA-MB-435 melanoma
SW-620 colon = tested on: SW-620 colon
MCF7 breast = tested on: MCF7 breast
HCT-116 colon = tested on: HCT-116 colon
KM12 colon = tested on: KM12 colon

Measured: growth

O=C(CNc1ccc([N+](=O)[O-])c([N+](=O)[O-])c1)n1cnc2ccc([N+](=O)[O-])cc21
inactive: NCI-H226 lung 109% | NCI-H322M lung 96.5% | HOP-62 NSCLC 103% | NCI-H460 lung 102% | HOP-92 NSCLC 123% | NCI-H522 lung 88.5% | A549/ATCC NSCLC 97.4% | 786-0 renal 101% | COLO 205 colon 114% | DU-145 prostate 107% | K-562 leukemia 114% | MALME-3M melanoma 102% | MDA-MB-231 breast 101% | RXF 393 renal 108% | SF-268 CNS 99.7% | SF-295 CNS 105% | SF-539 CNS 94.6% | UACC-257 melanoma 102% | M14 melanoma 102% | HCT-15 colon 100% | HT29 colon 98.8% | SNB-75 CNS 92.5% | SNB-19 CNS 96.3% | U251 CNS 99.3% | PC-3 prostate 104% | UACC-62 melanoma 98.1% | SK-MEL-28 melanoma 106% | SK-MEL-2 melanoma 98.9% | EKVX NSCLC 99.2% | SN12C renal 92.6% | UO-31 renal 93.3% | TK-10 renal 94.9% | ACHN renal 103% | CAKI-1 renal 97.2% | A498 renal 85.5% | HL-60(TB) leukemia 115% | CCRF-CEM leukemia 105% | MOLT-4 leukemia 102% | SR leukemia 107% | RPMI-8226 leukemia 115% | OVCAR-8 ovarian 103% | OVCAR-5 ovarian 106% | OVCAR-4 ovarian 111% | IGROV1 ovarian 107% | OVCAR-3 ovarian 108% | HS 578T breast 94.6% | T-47D breast 98.4% | BT-549 breast 104% | MDA-MB-435 melanoma 98.8% | SW-620 colon 103% | MCF7 breast 94% | HCT-116 colon 104% | KM12 colon 102%
